In patent publication US20260384421A1, “NOVEL COMPOUNDS THAT CAN BE USED AS THERAPEUTIC AGENTS” (published 2026):
Read-outs that look alike come from different tables or passages of the source.

Columns and labels:
SW-948 cells = assay: alamarBlue proliferation assay with SW-948 cells (glucose-free L-15 medium); details: read-out: Activity on SW-948: IC50, Leibovitz's L-15 medium, 10% FBS, 0% CO2
Excerpt: (§1) These hyperproliferative processes can be benign or malignant and include hyperplasia, neoplasia, cancer and pre-cancerous lesions, and metastases. The antiproliferative activities of compounds falling under general formula (I) were investigated on human primary epidermal keratinocytes (HPEK) and human, murine and canine cell lines derived from hyperproliferative tissue or different cancer types, including MDA-MB-231, ZR-75-30, HCC-1395, HCC-1937, and T-47D all originating from cancer of the breast, JURKAT, RPMI-8402, LOUCY, TANQUE, REC-1, HL-60, NB-4 all originating from different types of blood cancer including lymphoma and leukemia of T-cells, B-cells and myeloid cells, TT originating from cancer of the neuroendocrine system, HeLa originating from cancer of the cervix, 23132/87, SW-948, and HCT-116 all originating from cancer of the gastrointestinal tract including stomach and colon, BHY originating from cancer of the mucosal epithelium, A-431 originating from cancer of the skin, HEP-G2 originating from cancer of the liver, NCI-H460 and A-549 both originating from cancer of the lung, PANC-1 originating from cancer of the pancreas, U-87 MG originating from cancer of the brain, A-375 and RVH-421 both originating from cancer of melanocytes, SW-1353 originating from cancer of bone-derived chondrocytes, C2C12 a mouse cell line originating from hyperproliferative muscle progenitor cells, LL/2 a mouse cell line originating from cancer of the lung, CF21.T a dog cell line originating from cancer of the connective tissue. To this end, according cells were seeded into 96-well plates (CORNING #3598) suitable for fluorescence assays at following initial cell numbers: 1000 cells per well for HPEK; 3000 cells per well for MDA-MB-231, 8000 cells per well for ZR-75-30, 1500 cells per well for HCC-1395, 1500 cells per well for HCC-1937, 3000 cells per well for T-47D, 1500 cells per well for JURKAT, 5000 cells per well for RPMI-8402, 9000 cells per well for LOUCY, 1500 cells per well for TANQUE, 9000 cells per well for REC-1, 1000 cells per well for HL-60, 1000 cells per well for NB-4, 9000 cells per well for TT, 2000 cells per well for HeLa, 2000 cells per well for 23132/87, 9000 cells per well for SW-948, 700 cells per well for HCT-116, 1500 cells per well for BHY, 700 cells per well for A-431, 1500 cells per well for HEP-G2, 500 cells per well for NCI-H460, 1000 cells per well for A-549, 1500 cells per well for PANC-1, 2500 cells per well for U-87 MG, 700 cells per well for A-375, 1500 cells per well for RVH-421, 2000 cells per well for SW-1353, 500 cells per well for C2C12, 500 cells per well for LL/2, and 3000 cells per well for CF21.T. In a volume of 90 μL per well of culture medium the cells were treated with compounds at indicated final concentrations by adding 10 μL per well of 10× compound working solutions from 1:100 pre-diluted 1000× compound DMSO stock-solutions in H2O (Water For Injection, WFI, Fisher Scientific, Gibco™ #A12873) or with the empty carrier DMSO (AppliChem, #A3672) at 0.1% v/v as control yielding a final volume of 100 μL per well. At day 5 after starting the treatments the cells were subjected to the alamarBlue® Proliferation Assay (Bio-Rad Serotec GmbH, BUF012B) according to the protocol of the manufacturer. The readout was taken with a multi-well plate-reader (Tecan Spark®) in the fluorescence mode with applying a filter for excitation at 560 nm (band width 10 nm) and for emission at 590 nm (band width 10 nm). Treatment for maximum proliferation inhibition with the commercial cytotoxic compound (S)-(+)-camptothecin (Fluorochem #M01564) at a concentration of 10 μM was included on each plate for assay quality control. Some of the test compounds of the present invention may have been obtained and applied as their salt forms.
(§2) The assays were performed in duplicate or more replicates of independent single experiments each containing a three- to six-fold replicate for every condition. […]

RVH-421 cells = assay: alamarBlue proliferation assay with RVH-421 cells (glucose-free L-15 medium); details: read-out: Activity on RVH-421: IC50, Leibovitz's L-15 medium, 10% FBS, 0% CO2
HL-60 cells = assay: alamarBlue proliferation assay with HL-60 cells; details: read-out: Activity on HL-60: IC50, RPMI 1640 medium, 10% FBS
Excerpt: as §1, §2

NCI-H460 cells = assay: alamarBlue proliferation assay with NCI-H460 cells; details: read-out: Activity on NCI-H460: IC50, RPMI 1640 medium, 10% FBS
MDA-MB-231 cells = assay: alamarBlue proliferation assay with MDA-MB-231 cells (glucose-free Leibovitz's L-15 medium)
JURKAT cells = assay: alamarBlue proliferation assay with JURKAT cells; details: read-out: Activity on JURKAT (IC50), day 5
Excerpt: as §1, §2

C2C12 cells = assay: alamarBlue proliferation assay with C2C12 cells; details: read-out: Activity on C2C12: IC50; C2C12 murine myoblast cells, RPMI 1640 medium, 10% FBS
Excerpt: as §1, §2

HPEKp cells = assay: proliferation assay with human epidermal keratinocyte progenitors (HPEKp), selectivity versus MDA-MB-231; details: read-out: Activity (HPEK): antiproliferative activity on HPEK cells, IC50 category; HPEK cells cultivated in CnT-Prime medium
TANQUE cells = assay: alamarBlue proliferation assay with TANQUE cells; details: read-out: Activity on TANOUE: IC50, RPMI 1640 medium, 10% FBS
NB-4 cells = assay: alamarBlue proliferation assay with NB-4 cells; details: read-out: Activity on NB-4: IC50, RPMI 1640 medium, 10% FBS
HCT-116 cells = assay: alamarBlue proliferation assay with HCT-116 cells; details: read-out: Activity on HCT-116: IC50, McCoy's 5A medium, 10% FBS
A-549 cells = assay: alamarBlue proliferation assay with A-549 cells; details: read-out: Activity on A-549: IC50, DMEM medium, 10% FBS
SW-1353 cells = assay: alamarBlue proliferation assay with SW-1353 cells (glucose-free L-15 medium); details: read-out: Activity on SW-1353: IC50, Leibovitz's L-15 medium, 10% FBS, 0% CO2
Excerpt: as §1, §2

[1] = tested on: mitochondrial transmembrane potential Δψm in A-549 cells; assay: mitochondrial activity assay (TMRE staining, mitochondrial transmembrane potential) on A-549 cells; details: A-549 cells, compounds at 10 μM, 2 h 40 min, TMRE staining, relative to DMSO = 1.0
[2] = read-out: Activity on MDA-MB-231 (IC50), glucose-free Leibovitz's L-15, 10% FBS, day 5, alamarBlue
[3] = read-out: Activity (MDA): antiproliferative activity on MDA-MB-231 cells, IC50 category, MDA-MB-231 cells cultivated in glucose-free Leibovitz's L-15 medium

| Structure (SMILES) | IC50 (SW-948 cells) [µM] | IC50 (HL-60 cells) [µM] | IC50 (NCI-H460 cells) [µM] | IC50 (MDA-MB-231 cells; [2]) [µM] | IC50 (JURKAT cells) [µM] | IC50 (HPEKp cells) [µM] | IC50 (MDA-MB-231 cells; [3]) [µM] | IC50 (HCT-116 cells) [µM] | IC50 (A-549 cells) [µM] | IC50 (SW-1353 cells) [µM] | IC50 (RVH-421 cells) [µM] | IC50 (C2C12 cells) [µM] | IC50 (TANQUE cells) [µM] | IC50 (NB-4 cells) [µM] | Activity: relative mitochondrial transmembrane potential Δψm [1] |
| --- | --- | --- | --- | --- | --- | --- | --- | --- | --- | --- | --- | --- | --- | --- | --- |
| O=Cc1cc(C2CCC3(CC2)OCCO3)ccc1Oc1ccc(C(=O)N2CCN(c3ccccc3)CC2)cc1 | ≤ 5 | ≤ 5 | ≤ 5 | ≤ 5 | ≤ 5 | – | – | – | – | – | ≤ 5 | – | – | – | – |
| O=C(c1ccc(Oc2ccc(C3CCC4(CC3)OCCO4)cc2CO)cc1)N1CCN(c2ccccc2)CC1 | ≤ 20 | ≤ 20 | ≤ 20 | ≤ 5 | ≤ 20 | > 10 | < 1 | – | – | – | ≤ 5 | – | – | – | – |
| O=C(c1ccc(Nc2ccc(C3CCC4(CC3)OCCO4)cc2)cc1)N1CCN(Cc2ccccc2)CC1 | ≤ 20 | ≤ 20 | ≤ 20 | ≤ 5 | ≤ 20 | < 10 | < 5 | ≤ 5 | – | – | ≤ 5 | – | ≤ 5 | ≤ 5 | – |
| O=C(c1ccc(Oc2ccc(C3CCC4(CC3)OCCO4)cc2CO)cc1)N1CCN(Cc2ccc[nH]2)CC1 | ≤ 5 | ≤ 5 | ≤ 5 | ≤ 1 | ≤ 5 | – | – | – | – | – | ≤ 1 | – | – | – | – |
| COc1cc(CN2CCN(C(=O)c3ccc(Oc4ccc(C5CCC6(CC5)OCCO6)cc4C=O)cc3)CC2)cc(OC)c1 | ≤ 5 | ≤ 5 | ≤ 5 | ≤ 1 | ≤ 5 | – | – | – | – | – | ≤ 5 | – | – | – | – |

Now from value to compound, other results behind:

| IC50 (SW-948 cells) [µM] | IC50 (HL-60 cells) [µM] | IC50 (NCI-H460 cells) [µM] | IC50 (MDA-MB-231 cells; [2]) [µM] | IC50 (JURKAT cells) [µM] | IC50 (HPEKp cells) [µM] | IC50 (MDA-MB-231 cells; [3]) [µM] | IC50 (HCT-116 cells) [µM] | IC50 (A-549 cells) [µM] | IC50 (SW-1353 cells) [µM] | Structure (SMILES) | IC50 (RVH-421 cells) [µM] | IC50 (C2C12 cells) [µM] | IC50 (TANQUE cells) [µM] | IC50 (NB-4 cells) [µM] | Activity: relative mitochondrial transmembrane potential Δψm [1] |
| --- | --- | --- | --- | --- | --- | --- | --- | --- | --- | --- | --- | --- | --- | --- | --- |
| ≤ 0.2 | ≤ 5 | ≤ 5 | ≤ 0.2 | ≤ 5 | – | – | – | – | – | O=Cc1cc(C2CCC3(CC2)OCCO3)ccc1Oc1ccc(C(=O)N2CCN(Cc3ccc4oc(=O)ccc4c3)CC2)cc1 | ≤ 0.2 | – | – | – | – |
| – | – | – | ≤ 0.2 | – | – | – | – | – | – | O=Cc1cc(C2CCC3(CC2)OCCO3)ccc1Oc1ccc(C(=O)N2CCN(Cc3ccc(C(F)(F)F)nc3)CC2)cc1 | – | ≤ 5 | – | – | – |
| ≤ 5 | ≤ 5 | ≤ 5 | ≤ 0.2 | ≤ 5 | – | – | – | – | – | CC(c1ccccc1)N1CCN(C(=O)c2ccc(Oc3ccc(C4CCC5(CC4)OCCO5)cc3C=O)cc2)CC1 (stereo not drawn) | ≤ 1 | – | – | – | – |
| ≤ 1 | ≤ 5 | ≤ 5 | ≤ 0.2 | ≤ 5 | – | – | – | – | – | O=Cc1cc(C2CCC3(CCCO3)CC2)ccc1Oc1ccc(C(=O)N2CCN(Cc3ccccc3)CC2)cc1 (stereo not drawn) | ≤ 0.2 | – | – | – | – |
| ≤ 5 | ≤ 5 | ≤ 5 | ≤ 1 | ≤ 5 | – | – | – | – | – | Cn1cccc1CN1CCN(C(=O)c2ccc(Oc3ccc(C4CCC5(CC4)OCCO5)cc3C=O)cc2)CC1 | ≤ 1 | – | – | – | – |
| ≤ 5 | ≤ 5 | ≤ 5 | ≤ 0.2 | ≤ 20 | – | – | – | ≤ 0.2 | ≤ 0.2 | CC(c1ccccc1)N1CCN(C(=O)c2ccc(Oc3ccc(C4CCC5(CC4)OCCO5)cc3CO)cc2)CC1 (stereo not drawn) | ≤ 1 | – | – | – | Δψm ≤0.7 |
| ≤ 1 | ≤ 5 | ≤ 5 | ≤ 0.2 | ≤ 1 | – | – | – | – | – | O=Cc1cc(C2CCC3(CC2)OCCO3)ccc1Oc1ccc(C(=O)N2CCN(Cc3ccc(O)cc3)CC2)cc1 | ≤ 0.2 | – | – | – | – |
